Like-named read-outs stand apart in the source and are kept apart here.
What was measured:
[1] = test system: NMDA ion channel receptor; test: Safety Screen 44: NMDA; format: binding, human
Ca2+ Channel [2] = test: Safety Screen 44: Ca2+ Channel; format: binding, human
Kv Channel [3] = test: Safety Screen 44: Kv Channel; format: binding, human
Nav Channel [4] = test: Safety Screen 44: Nav Channel; format: binding, human
BZD (central) [5] = test: Safety Screen 44: BZD (central); format: binding, human
[6] = test system: HepG2 human hepatocellular carcinoma cells; conditions: HepG2 cytotoxicity
Ca2+ Channel [7] = test: Safety Screen 44: Ca2+ Channel; format: binding, human; remark: listed apart in the source
Kv Channel [8] = test: Safety Screen 44: Kv Channel; format: binding, human; remark: listed apart in the source
Nav Channel [9] = test: Safety Screen 44: Nav Channel; format: binding, human; remark: listed apart in the source
BZD (central) [10] = test: Safety Screen 44: BZD (central); format: binding, human; remark: listed apart in the source
hERG = hERG (Homo sapiens, UniProt Q12809); conditions: Safety Screen 44

Sequences of proteins named here, by UniProt entry; tags and fusion partners are left off. A change or cut given only in a name is not applied to a line headed by its entry.
UniProt Q12809: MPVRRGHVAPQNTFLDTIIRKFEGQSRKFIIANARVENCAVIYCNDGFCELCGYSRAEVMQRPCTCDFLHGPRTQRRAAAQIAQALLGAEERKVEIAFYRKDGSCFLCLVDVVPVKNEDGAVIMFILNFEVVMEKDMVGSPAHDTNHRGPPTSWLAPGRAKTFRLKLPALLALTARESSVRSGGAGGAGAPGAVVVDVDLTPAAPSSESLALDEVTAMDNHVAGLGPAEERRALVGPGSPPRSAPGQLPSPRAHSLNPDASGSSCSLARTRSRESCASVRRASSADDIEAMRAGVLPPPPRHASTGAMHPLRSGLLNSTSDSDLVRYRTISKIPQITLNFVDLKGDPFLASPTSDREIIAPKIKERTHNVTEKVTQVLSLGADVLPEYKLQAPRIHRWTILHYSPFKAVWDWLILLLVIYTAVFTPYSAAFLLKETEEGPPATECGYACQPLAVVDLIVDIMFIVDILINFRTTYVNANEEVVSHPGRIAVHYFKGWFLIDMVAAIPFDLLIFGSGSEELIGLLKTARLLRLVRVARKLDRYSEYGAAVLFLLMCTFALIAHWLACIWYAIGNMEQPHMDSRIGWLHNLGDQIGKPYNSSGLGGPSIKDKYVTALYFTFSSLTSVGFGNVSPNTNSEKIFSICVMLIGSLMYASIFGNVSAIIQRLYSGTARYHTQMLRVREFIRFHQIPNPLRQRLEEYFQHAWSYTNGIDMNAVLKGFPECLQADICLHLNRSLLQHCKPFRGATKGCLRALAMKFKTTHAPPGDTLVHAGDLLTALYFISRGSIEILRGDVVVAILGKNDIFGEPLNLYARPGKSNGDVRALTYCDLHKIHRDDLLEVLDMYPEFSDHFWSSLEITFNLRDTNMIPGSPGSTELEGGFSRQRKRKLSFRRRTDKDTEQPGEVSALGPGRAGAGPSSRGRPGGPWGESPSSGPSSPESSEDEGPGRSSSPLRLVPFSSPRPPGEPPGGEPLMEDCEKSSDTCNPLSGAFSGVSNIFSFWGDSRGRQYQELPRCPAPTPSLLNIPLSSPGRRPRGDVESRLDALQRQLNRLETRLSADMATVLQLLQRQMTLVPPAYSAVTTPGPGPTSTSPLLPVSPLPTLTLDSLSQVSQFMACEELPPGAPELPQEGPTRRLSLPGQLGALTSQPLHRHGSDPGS

SMILES	Cerep SafetyScreen 44 % Inhibition NMDA ([1]; […])	Minimum Inhibitory Concentration Mycobacterium phlei (Mycobacterium phlei)	Cerep SafetyScreen 44 % Inhibition Ca2+ Channel (Ca2+ Channel [2])	Cerep SafetyScreen 44 % Inhibition Kv Channel (Kv Channel [3])	Cerep SafetyScreen 44 % Inhibition Nav Channel (Nav Channel [4])	Cerep SafetyScreen 44 % Inhibition BZD (central) (BZD (central) [5])	HepG2 EC50 [6]	Cerep SafetyScreen 44 % Inhibition NMDA [1]	Cerep SafetyScreen 44 % Inhibition Ca2+ Channel (Ca2+ Channel [7])	Cerep SafetyScreen 44 % Inhibition Kv Channel (Kv Channel [8])	Cerep SafetyScreen 44 % Inhibition Nav Channel (Nav Channel [9])	Cerep SafetyScreen 44 % Inhibition BZD (central) (BZD (central) [10])	hERG hit (hERG)
C=C1NC(=O)[C@H](Cc2c[nH]c3ccccc23)NC(=O)[C@H](NC(=O)[C@H](CCCCN)NC(=O)[C@@H](N)Cc2ccccc2)CSC[C@@H](C(=O)N[C@H]2C(=O)N3CCC[C@H]3C(=O)NCC(=O)N[C@H](C(=O)N[C@@H](C)C(=O)N[C@@H](CCCNC(=N)N)C(=O)N/C(=C\C)C(=O)N[C@@H](CC(N)=O)C(=O)N[C@@H]3CSC[C@@H]4NC(=O)[C@H](Cc5ccc(O)cc5)NC(=O)[C@@H](CS/C=C\NC4=O)NC(=O)[C@H](CC(N)=O)NC(=O)[C@H](Cc4ccccc4)NC3=O)CS[C@H]2C)NC(=O)[C@H](CC(C)C)NC1=O [G15N]	13%	4 µg/mL	-10%	-3%	17%	-23%	584 µg/mL						
C=C1NC(=O)[C@H](Cc2c[nH]c3ccccc23)NC(=O)[C@H](NC(=O)[C@H](CCCCN)NC(=O)[C@@H](N)Cc2ccccc2)CSC[C@@H](C(=O)N[C@H]2C(=O)N3CCC[C@H]3C(=O)NCC(=O)N[C@H](C(=O)N[C@@H](C)C(=O)N[C@@H](CCCNC(=N)N)C(=O)N/C(=C\C)C(=O)N[C@@H](CO)C(=O)N[C@@H]3CSC[C@@H]4NC(=O)[C@H](Cc5ccc(O)cc5)NC(=O)[C@@H](CS/C=C\NC4=O)NC(=O)[C@H](CC(N)=O)NC(=O)[C@H](Cc4ccccc4)NC3=O)CS[C@H]2C)NC(=O)[C@H](CC(C)C)NC1=O [G15S]	1%	4 µg/mL	-18%	3%	-1%	-22%	397 µg/mL						
C=C1NC(=O)[C@H](Cc2c[nH]c3ccccc23)NC(=O)[C@H](NC(=O)[C@H](CCCCN)NC(=O)[C@@H](N)Cc2ccccc2)CSC[C@@H](C(=O)N[C@H]2C(=O)N3CCC[C@H]3C(=O)NCC(=O)N[C@H](C(=O)N[C@@H](C)C(=O)N[C@@H](CCCNC(=N)N)C(=O)N/C(=C\C)C(=O)NCC(=O)N[C@@H]3CSC[C@@H]4NC(=O)[C@H](Cc5ccc(O)cc5)NC(=O)[C@@H](CS/C=C\NC4=O)NC(=O)[C@H](CC(N)=O)NC(=O)[C@H](Cc4ccccc4)NC3=O)CS[C@H]2C)NC(=O)[C@H](CC(N)=O)NC1=O [L6N]		4 µg/mL					> 1000 µg/mL	11%	-11%	4%	-1%	-9%	
C=C1NC(=O)[C@H](Cc2c[nH]c3ccccc23)NC(=O)[C@H](NC(=O)[C@H](CCCCN)NC(=O)[C@@H](N)Cc2ccccc2)CSC[C@@H](C(=O)N[C@H]2C(=O)N3CCC[C@H]3C(=O)NCC(=O)N[C@H](C(=O)N[C@@H](C)C(=O)N[C@@H](CCCNC(=N)N)C(=O)N/C(=C\C)C(=O)NCC(=O)N[C@@H]3CSC[C@@H]4NC(=O)[C@H](Cc5ccc(O)cc5)NC(=O)[C@@H](CS/C=C\NC4=O)NC(=O)[C@H](CC(N)=O)NC(=O)[C@H](Cc4ccccc4)NC3=O)CS[C@H]2C)NC(=O)[C@H](C(C)C)NC1=O [L6V]	24%	2 µg/mL	-6%	8%	-12%	1%	536 µg/mL						
C=C1NC(=O)[C@H](Cc2c[nH]c3ccccc23)NC(=O)[C@H](NC(=O)[C@H](CCCCN)NC(=O)[C@@H](N)Cc2ccccc2)CSC[C@@H](C(=O)N[C@H]2C(=O)N3CCC[C@H]3C(=O)NCC(=O)N[C@H](C(=O)N[C@@H](C)C(=O)N[C@H](C(=O)N/C(=C\C)C(=O)NCC(=O)N[C@@H]3CSC[C@@H]4NC(=O)[C@H](Cc5ccc(O)cc5)NC(=O)[C@@H](CS/C=C\NC4=O)NC(=O)[C@H](CC(N)=O)NC(=O)[C@H](Cc4ccccc4)NC3=O)[C@@H](C)O)CS[C@H]2C)NC(=O)[C@H](CC(C)C)NC1=O [R13T]	13%	8 µg/mL	-20%	-7%	1%	-27%							
C/C=C(\NC(=O)[C@H](CCCNC(=N)N)NC(=O)[C@H](C)NC(=O)[C@@H]1CS[C@@H](C)[C@@H](NC(=O)[C@@H]2CSC[C@@H](NC(=O)[C@H](CCCCN)NC(=O)[C@@H](N)Cc3ccccc3)C(=O)N[C@@H](Cc3c[nH]c4ccccc34)C(=O)N[C@@H](C)C(=O)N[C@@H](CC(C)C)C(=O)N2)C(=O)N2CCC[C@H]2C(=O)NCC(=O)N1)C(=O)NCC(=O)N[C@@H]1CSC[C@@H]2NC(=O)[C@H](Cc3ccc(O)cc3)NC(=O)[C@@H](CS/C=C\NC2=O)NC(=O)[C@H](CC(N)=O)NC(=O)[C@H](Cc2ccccc2)NC1=O [Ser5Ala]													23%
